Source: patent US8067447B2, “Modulators of glucocorticoid receptor, AP-1, and/or NF-κB activity and use thereof” (Bristol-Myers Squibb Company, priority 2006, dated 2011)

Chains of the proteins cited; added tags and fusions are not shown.
UniProt P04150, whole entry: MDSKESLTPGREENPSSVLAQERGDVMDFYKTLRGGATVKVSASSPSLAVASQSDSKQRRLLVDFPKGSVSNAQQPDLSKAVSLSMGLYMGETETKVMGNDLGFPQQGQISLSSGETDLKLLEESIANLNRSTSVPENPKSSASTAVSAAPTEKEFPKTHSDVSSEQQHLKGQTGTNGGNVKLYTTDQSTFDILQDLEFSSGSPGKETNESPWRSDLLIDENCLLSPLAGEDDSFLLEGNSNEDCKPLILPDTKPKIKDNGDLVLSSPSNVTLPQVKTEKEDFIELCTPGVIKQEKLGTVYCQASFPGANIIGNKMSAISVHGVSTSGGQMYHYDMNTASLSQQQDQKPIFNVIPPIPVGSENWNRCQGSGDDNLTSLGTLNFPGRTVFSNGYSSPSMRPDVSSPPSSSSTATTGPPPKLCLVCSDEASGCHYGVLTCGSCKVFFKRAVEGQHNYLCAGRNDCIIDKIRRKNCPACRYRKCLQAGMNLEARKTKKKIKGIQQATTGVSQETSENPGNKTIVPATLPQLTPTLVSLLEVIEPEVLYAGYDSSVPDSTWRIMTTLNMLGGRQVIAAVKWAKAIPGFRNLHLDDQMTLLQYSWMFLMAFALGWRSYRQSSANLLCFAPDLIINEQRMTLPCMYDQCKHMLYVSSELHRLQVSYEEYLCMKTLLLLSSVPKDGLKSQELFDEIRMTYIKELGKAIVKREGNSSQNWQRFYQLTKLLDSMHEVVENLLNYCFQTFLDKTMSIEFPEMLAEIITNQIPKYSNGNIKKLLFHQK

Experiments:
[1] = tested on: AP-1 induced transcriptional activity; assay: Cellular Transrepressional Assay (AP-1 luciferase reporter in A549 cells, PMA-activated); format: cell-based; details: read-out: AP-1 (EC50, nM) (Cellular Transrepression Assay); A549 cells with 7x AP-1 luciferase reporter, 10 ng/ml PMA, 7 hours
Procedure: To measure the ability of test molecules to inhibit AP-1 induced transcriptional activity an A549 cell was utilized which was stably transfected with a plasmid containing 7× AP-1 DNA binding sites (pAP-1-Luc plasmid, Stratagene Co. La Jolla, Calif.) followed by the gene for luciferase. Cells were activated with 10 ng/ml of […] (PMA) plus or minus test molecules for 7 hours. After 7 hours a luciferase reagent was added to measure luciferase enzymatic activity in the cell. After a 10 minute incubation of luciferase reagent with cells, luminescence was measured in a TopCount luminescence counter. Repression of AP-1 activity was calculated as the percentage decrease in the signal induced by PMA alone. Test molecules were analyzed in the concentration range from 0.1 nM to 40 μM. EC50s were determined by using standard curve fitting methods such as Excel fit (Microsoft Co.).

[2] = biological target: human glucocorticoid receptor (Homo sapiens, UniProt P04150); assay: Glucocorticoid Receptor Binding Assay (I), fluorescence polarization competitor kit (Fluormone GS Red); details: read-out: GR (Ki, nM) (GR Binding Assay (I)); purified human recombinant full-length GR 2 nM, 1 nM Fluormone GS Red, FP
[3] = biological target: human full-length glucocorticoid receptor (Homo sapiens, UniProt P04150); assay: Glucocorticoid Receptor Binding Assay (II), fluorescence polarization competitor kit (Fluormone GS1); details: read-out: GR (Ki, nM) (GR Binding Assay (II)); cell lysate with recombinant human full-length GR, 1 nM Fluormone GS1, FP

Compound | EC50 [1] [nM] | Ki [2] [nM] | Ki [3] [nM]
CC(C)(C(=O)Nc1nncs1)C(c1ccccc1)c1ccc2c(cnn2-c2cccnc2)c1 (single isomer, unassigned) [86-enant B] | > 10000 |  | 
CC(C)(C(=O)Nc1nncs1)[C@H](c1ccccc1)c1ccc2[nH]ncc2c1 | 701 |  | 
CC(C)(C(=O)Nc1nncs1)[C@@H](c1ccccc1)c1ccc2[nH]ncc2c1 |  |  | 0.54
CCCCn1ncc2cc(C(c3ccccc3)C(C)(C)C(=O)Nc3nncs3)ccc21 (single isomer, unassigned) [68-enant B] | 7710 | 32 | 
CC(C)(C(=O)Nc1nccs1)C(c1ccc2c(cnn2-c2ccc(F)cc2)c1)C1CCCCC1 (single isomer, unassigned) [38-enant B] | > 10000 | 14 | 
CC(C)CC(c1ccc2c(cnn2-c2ccc(F)cc2)c1)C(C)(C)C(=O)Nc1nccs1 (single isomer, unassigned) [33-enant A] | > 10000 | 18 | 
CC(C)CCn1ncc2cc(C(c3ccccc3)C(C)(C)C(=O)Nc3nncs3)ccc21 (single isomer, unassigned) [66-enant B] | 1700 | 16 | 

More lines, now with the values ahead:

EC50 [1] [nM] | Ki [2] [nM] | Ki [3] [nM] | Compound
12 | 15 |  | CC(C)(C(=O)Nc1nccs1)C(c1ccc2c(cnn2-c2ccc(F)cc2)c1)C1CCCCC1 (single isomer, unassigned) [38-enant A]
0.81 |  |  | CC(C)(C(=O)Nc1nccs1)[C@@H](c1ccccc1)c1ccc2c(cnn2-c2ccc(F)cc2)c1
192 | 6.1 |  | CCCCn1ncc2cc(C(c3ccccc3)C(C)(C)C(=O)Nc3nncs3)ccc21 (single isomer, unassigned) [68-enant A]
400 |  |  | CC(C)(C(=O)Nc1nccs1)[C@H](c1ccccc1)c1ccc2c(cnn2-c2ccc(F)cc2)c1
11 | 13 |  | CC(C)CC(c1ccc2c(cnn2-c2ccc(F)cc2)c1)C(C)(C)C(=O)Nc1nccs1 (single isomer, unassigned) [33-enant B]
62 |  |  | CC(C)CCn1ncc2cc(C(c3ccccc3)C(C)(C)C(=O)Nc3nncs3)ccc21 (single isomer, unassigned) [66-enant A]
95 | 3.7 |  | CC(C)(C(=O)Nc1nncs1)C(c1ccccc1)c1ccc2c(cnn2-c2cccnc2)c1 (single isomer, unassigned) [86-enant A]
5.8 |  | 1.2 | C=C(C)CC(c1ccc2c(cnn2-c2ccc(F)cc2)c1)C(C)(C)C(=O)Nc1nncs1 (single isomer, unassigned) [54-enant A]
3.2 |  | 0.9 | C=C(C)CC(c1ccc2c(cnn2-c2ccc(F)cc2)c1)C(C)(C)C(=O)Nc1nncs1 (single isomer, unassigned) [54-enant B]
